Sequences of proteins named here, by UniProt entry; tags and fusion partners are left off.
UniProt Q92847, whole entry: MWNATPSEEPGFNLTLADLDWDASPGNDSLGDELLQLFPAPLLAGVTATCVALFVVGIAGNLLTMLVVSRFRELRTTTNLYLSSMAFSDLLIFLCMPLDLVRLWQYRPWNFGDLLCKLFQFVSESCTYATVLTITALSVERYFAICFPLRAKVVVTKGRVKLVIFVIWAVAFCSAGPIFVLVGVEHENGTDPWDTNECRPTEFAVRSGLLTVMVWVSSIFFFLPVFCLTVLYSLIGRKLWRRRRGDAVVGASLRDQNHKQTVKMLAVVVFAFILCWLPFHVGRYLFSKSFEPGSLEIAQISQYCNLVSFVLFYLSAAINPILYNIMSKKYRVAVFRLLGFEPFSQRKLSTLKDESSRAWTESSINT

According to US6514709B1 (dated 2003):

Tests used:
[1] = target: T1, human growth hormone secretagogue receptor type 1a (hGHSR1A) (Homo sapiens, UniProt Q92847); experiment: Aequorin luminescence in hGHSR1A cells (WALLAC MICROBETA JET); assay type: cell-based; settings: 100 nM ghrelin, no BAPTA
[2] = target: T1, human growth hormone secretagogue receptor type 1a (hGHSR1A); experiment: Fluo-4 fluorescence calcium response in hGHSR1a cells (VIPR); assay type: cell-based; settings: 100 nM ghrelin, no BAPTA

## ghrelin
[1]
  time to peak light emission: 3 s
  time until light emission essentially gone: 30 s
[2]
  time to complete decay to baseline: about 100 seconds
  time to maximum fluorescence: about 15 sec
